Measured values published in patent US6491840B1, “Polymer compositions having specified PH for improved dispensing and improved stability of wrinkle reducing compositions and methods of use” (The Procter & Gamble Company, priority 2000, dated 2002).

Assay: Buffering capacity dB/dpH calculated from ionization constant
Details: 0.1 g per liter triethanolamine, pH raised from 6.8 to 9; calculated from equation

**Q.** Which “buffering capacity dB/dpH” value does the source give for `OCCN(CCO)CCO` here?
**A.** 0.00011
